Laboratory results published in ChEMBL document CHEMBL1933039, “6-alkylsalicylates are selective Tip60 inhibitors and target the acetyl-CoA binding site” (Eur J Med Chem, 2012).

Protein sequences, listed by entry. Tags and fused reporters are not part of them.
UniProt Q92993, whole entry, looked up: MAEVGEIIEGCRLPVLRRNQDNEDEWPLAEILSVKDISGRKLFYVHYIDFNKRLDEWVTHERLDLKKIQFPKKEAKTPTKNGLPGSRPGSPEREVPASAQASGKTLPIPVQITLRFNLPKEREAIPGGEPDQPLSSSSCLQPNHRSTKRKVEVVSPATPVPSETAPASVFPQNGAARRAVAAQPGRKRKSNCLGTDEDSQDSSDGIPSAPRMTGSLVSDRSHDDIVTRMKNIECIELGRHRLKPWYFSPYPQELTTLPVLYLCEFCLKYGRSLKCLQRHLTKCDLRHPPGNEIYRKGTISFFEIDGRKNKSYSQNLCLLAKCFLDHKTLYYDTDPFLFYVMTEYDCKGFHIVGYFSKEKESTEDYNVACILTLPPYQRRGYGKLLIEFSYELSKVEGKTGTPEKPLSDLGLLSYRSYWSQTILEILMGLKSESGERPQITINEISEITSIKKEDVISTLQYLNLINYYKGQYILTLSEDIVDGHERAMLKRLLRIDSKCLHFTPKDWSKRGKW

What was measured:
[1] = target: T1, Histone acetyltransferase KAT5 (Homo sapiens, UniProt Q92993)
[2] = target: T1, Histone acetyltransferase KAT5; assay: Inhibition of human recombinant His-tagged Tip60 expressed in Escherichia coli BL21(DE3) cells using [14C]Ac-AoA and histone H4 as substrate after 5 mins by scintillation counting
[3] = target: T1, Histone acetyltransferase KAT5; remark: listed apart in the source

- Kis [1]: 54 µM
- IC50 [2]: 74 µM
- Kis [3]: > 660 µM
SMILES: CCCCCCCc1ccc(CCc2cccc(O)c2C(=O)O)cc1
